Earlier results on one substance are cited in patent publication US7439027B2, “Method for modulating process mediated by farnesoid activated receptors” (The Salk Institute for Biological Studies, priority 1995, dated 2008).

The chains behind the UniProt entries cited, without tags or fusion partners. Where a name states a change or a piece, a line headed by the entry shows the natural chain unless it says otherwise.
UniProt Q13907: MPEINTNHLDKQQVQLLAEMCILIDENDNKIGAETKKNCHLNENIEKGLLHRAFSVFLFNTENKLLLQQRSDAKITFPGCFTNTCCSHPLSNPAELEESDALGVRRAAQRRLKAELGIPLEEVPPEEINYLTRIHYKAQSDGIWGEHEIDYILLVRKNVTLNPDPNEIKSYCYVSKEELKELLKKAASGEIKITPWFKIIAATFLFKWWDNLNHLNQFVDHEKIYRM

In this data set the target is isopentenyl pyrophosphate isomerase (Homo sapiens, UniProt Q13907). The settings on record: read-out: half-maximal inhibition of isopentenyl pyrophosphate isomerase; cited from earlier work.

For the substance “3,7,11-trimethyl-2,6,10-dodecatrien-1-ol-pyrophosphate [FPP]”, the IC50 was 10 µM.
